Publication PMC10972748 (Nature, 2024)

Biological target: T1, SPSB3–ELOBC heterotrimeric complex (SPSB3 amino acids 83–326 with elongin B and elongin C) (human | , UniProt Q6PJ21 83-326; Q15370 1-118; Q15369 1-112)
T1 construct: SPSB3, human, core structured part, amino acids 83-326; elongin B (ELOB); elongin C (ELOC); also called substrate receptor complex; source: E. coli BL21 (DE3), purified (HisTrap, ULP1 cleavage, SEC); not shown: His6, N-terminal, cleaved; SUMO, N-terminal, cleaved; copies: + +
Experiment: BLI; GatorPrime, anti-His probes; cGAS or cGAS mutants (50 μg/ml) immobilised; SPSB3-ELOBC or its mutant in solution at various concentrations; PBS; 25 °C; 1:1 binding model
Conditions: both partners purified

Kd: 352 nM
B1: His–Halo-tagged cGAS (limits not told for the experiment) (natural protein, human, UniProt Q8N884 1-522, looked up)
chain: MQPWHGKAMQRASEAGATAPKASARNARGAPMDPTESPAAPEAALPKAGKFGPARKSGSRQKKSAPDTQERPPVRATGARAKKAPQRAQDTQPSDATSAPGAEGLEPPAAREPALSRAGSCRQRGARCSTKPRPPPGPWDVPSPGLPVSAPILVRRDAAPGASKLRAVLEKLKLSRDDISTAAGMVKGVVDHLLLRLKCDSAFRGVGLLNTGSYYEHVKISAPNEFDVMFKLEVPRIQLEEYSNTRAYYFVKFKRNPKENPLSQFLEGEILSASKMLSKFRKIIKEEINDIKDTDVIMKRKRGGSPAVTLLISEKISVDITLALESKSSWPASTQEGLRIQNWLSAKVRKQLRLKPFYLVPKHAKEGNGFQEETWRLSFSHIEKEILNNHGKSKTCCENKEEKCCRKDCLKLMKYLLEQLKERFKDKKHLDKFSSYHVKTAFFHVCTQNPQDSQWDRKDLGLCFDNCVTYFLQCLRTEKLENYFIPEFNLFSSNLIDKRSKEFLTKQIEYERNNEFPVFDEF
notes: cyclic GMP-AMP synthase (cGAS), human; also called Halo-cGAS; WT cGAS; source: E. coli BL21 (DE3), purified (HisTrap, SEC)
